Article PMC7613620, “Reaction hijacking of tyrosine tRNA synthetase as a whole-of-life-cycle antimalarial strategy” (Science (New York, N.Y.), 2022)

Tests used:
[1] = biological target: T1, ubiquitin activating enzyme (UAE) (Homo sapiens, UniProt P22314); assay: E1-E2 transthiolation HTRF assay, UAE; type: biochemical
T1 sequence (P22314 1-1058): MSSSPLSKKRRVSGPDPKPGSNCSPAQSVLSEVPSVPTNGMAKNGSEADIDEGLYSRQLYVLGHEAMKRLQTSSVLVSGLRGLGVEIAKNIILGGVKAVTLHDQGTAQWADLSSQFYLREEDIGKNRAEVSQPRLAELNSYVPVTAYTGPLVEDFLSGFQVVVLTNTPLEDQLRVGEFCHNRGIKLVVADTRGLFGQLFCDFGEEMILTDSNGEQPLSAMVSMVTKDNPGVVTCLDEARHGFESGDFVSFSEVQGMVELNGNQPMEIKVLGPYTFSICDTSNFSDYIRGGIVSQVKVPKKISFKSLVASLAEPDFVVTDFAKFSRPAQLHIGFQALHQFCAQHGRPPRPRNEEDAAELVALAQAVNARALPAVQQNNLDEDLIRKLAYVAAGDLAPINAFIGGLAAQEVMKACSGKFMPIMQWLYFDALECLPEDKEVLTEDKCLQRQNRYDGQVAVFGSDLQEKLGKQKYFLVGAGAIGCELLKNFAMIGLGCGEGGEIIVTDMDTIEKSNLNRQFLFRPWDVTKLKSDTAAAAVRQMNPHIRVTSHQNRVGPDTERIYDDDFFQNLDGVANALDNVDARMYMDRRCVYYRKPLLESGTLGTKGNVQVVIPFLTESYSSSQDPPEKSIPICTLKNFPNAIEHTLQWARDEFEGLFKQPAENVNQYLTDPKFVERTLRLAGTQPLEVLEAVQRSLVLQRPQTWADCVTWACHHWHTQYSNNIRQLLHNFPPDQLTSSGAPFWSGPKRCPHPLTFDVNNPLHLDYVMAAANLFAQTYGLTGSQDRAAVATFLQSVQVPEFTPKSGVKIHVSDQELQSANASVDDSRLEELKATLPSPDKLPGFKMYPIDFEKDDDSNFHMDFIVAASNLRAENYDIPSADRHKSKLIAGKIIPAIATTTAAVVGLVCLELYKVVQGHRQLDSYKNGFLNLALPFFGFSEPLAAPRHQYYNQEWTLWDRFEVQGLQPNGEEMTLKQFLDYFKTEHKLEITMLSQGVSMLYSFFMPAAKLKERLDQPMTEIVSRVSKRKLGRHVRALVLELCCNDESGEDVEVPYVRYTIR
Source text: (§1) 592 E1-E2 Transthiolation Assays
(§2) 593 An Homogeneous Time-Resolved Fluorescence (HTRF) enzyme assay was employed to evaluate
(§3) 594 compound activity against ATG7 as previously described (11). In this assay, a Flag-tagged ATG8 homolog
(§4) 595 (GABA type A receptor-associated protein; GABARAP) is activated by ATG7 and then transthiolated to a
(§5) 596 GST-tagged E2 (ATG3). The product of the enzyme reaction, Flag-GABARAP-ATG3-GST, is quantified
(§6) 597 by measuring FRET between Europium-Cryptate labelled monoclonal anti-Flag M2 (CisBio International,
(§7) 598 Cat# 61FG2KLB) and PHYCOLINK goat anti-GST allophycocyanin (Prozyme, PJ252p1). The activation
(§8) 599 and transthiolation of ubiquitin by Ubiquitin Activating Enzyme, activation and transthiolation of NEDD8
(§9) 600 by NEDD8 Activating Enzyme. […]
(§10) 606 Compounds were incubated with mature stage V gametocytes ([…], kind gift from Professor Chris Janse
(§11) 607 at Leiden University Medical Center (LUMC), the Netherlands) for 48 hours in 384 well plates before
(§12) 608 gamete formation was triggered by a drop in temperature and addition of xanthurenic acid. […]
(§13) 611 Multiple data sets using different gametocyte cultures were collected on each of two separate days.
(§14) 613 Activity against exoerythrocytic stages
(§15) 614 Primary human hepatocytes (H1500.H15B+ Lot No. HC10-10 Cryopreserved human hepatocytes) […]

[2] = biological target: T2, NEDD8-activating enzyme (NAE) (Homo sapiens, UniProt Q8TBC4); assay: E1-E2 transthiolation HTRF assay, NAE; type: biochemical
T2 sequence (Q8TBC4 1-463): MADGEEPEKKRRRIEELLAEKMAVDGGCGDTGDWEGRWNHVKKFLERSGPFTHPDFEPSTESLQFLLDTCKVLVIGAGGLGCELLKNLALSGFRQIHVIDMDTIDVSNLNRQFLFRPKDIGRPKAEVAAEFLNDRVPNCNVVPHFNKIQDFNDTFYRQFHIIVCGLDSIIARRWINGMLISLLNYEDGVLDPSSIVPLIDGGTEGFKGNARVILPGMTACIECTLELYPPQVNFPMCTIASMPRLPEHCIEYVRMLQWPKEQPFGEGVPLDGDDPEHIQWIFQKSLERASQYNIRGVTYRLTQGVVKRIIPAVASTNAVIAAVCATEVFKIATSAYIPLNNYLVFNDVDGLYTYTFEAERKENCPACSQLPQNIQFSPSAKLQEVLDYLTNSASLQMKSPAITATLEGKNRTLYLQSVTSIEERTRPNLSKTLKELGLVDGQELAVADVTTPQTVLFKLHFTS
T2 sequence (Q13564 1-534 partner): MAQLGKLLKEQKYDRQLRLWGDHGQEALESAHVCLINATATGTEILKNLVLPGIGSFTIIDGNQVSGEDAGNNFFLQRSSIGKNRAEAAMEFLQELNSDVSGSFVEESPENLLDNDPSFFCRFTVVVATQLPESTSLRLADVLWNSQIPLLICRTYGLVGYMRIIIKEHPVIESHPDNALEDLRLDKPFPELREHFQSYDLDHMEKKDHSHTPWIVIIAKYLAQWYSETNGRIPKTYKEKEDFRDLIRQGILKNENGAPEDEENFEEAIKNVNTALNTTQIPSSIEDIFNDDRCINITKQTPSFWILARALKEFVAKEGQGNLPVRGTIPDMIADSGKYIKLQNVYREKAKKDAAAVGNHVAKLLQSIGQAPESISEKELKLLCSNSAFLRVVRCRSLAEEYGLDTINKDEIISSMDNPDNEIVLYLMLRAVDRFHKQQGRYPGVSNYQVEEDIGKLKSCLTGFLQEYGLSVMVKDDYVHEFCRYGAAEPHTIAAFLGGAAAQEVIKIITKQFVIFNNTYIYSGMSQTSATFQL
Source text: as §1, §2, §3, §4, §5, §6, §7, §8, §9, §10, §11, §12, §13, §14, §15

human Atg7 = biological target: T3, human Atg7 (Homo sapiens, UniProt O95352); assay: E1-E2 transthiolation HTRF assay, ATG7 (RH-GABARAP); type: biochemical
T3 sequence (O95352 1-703): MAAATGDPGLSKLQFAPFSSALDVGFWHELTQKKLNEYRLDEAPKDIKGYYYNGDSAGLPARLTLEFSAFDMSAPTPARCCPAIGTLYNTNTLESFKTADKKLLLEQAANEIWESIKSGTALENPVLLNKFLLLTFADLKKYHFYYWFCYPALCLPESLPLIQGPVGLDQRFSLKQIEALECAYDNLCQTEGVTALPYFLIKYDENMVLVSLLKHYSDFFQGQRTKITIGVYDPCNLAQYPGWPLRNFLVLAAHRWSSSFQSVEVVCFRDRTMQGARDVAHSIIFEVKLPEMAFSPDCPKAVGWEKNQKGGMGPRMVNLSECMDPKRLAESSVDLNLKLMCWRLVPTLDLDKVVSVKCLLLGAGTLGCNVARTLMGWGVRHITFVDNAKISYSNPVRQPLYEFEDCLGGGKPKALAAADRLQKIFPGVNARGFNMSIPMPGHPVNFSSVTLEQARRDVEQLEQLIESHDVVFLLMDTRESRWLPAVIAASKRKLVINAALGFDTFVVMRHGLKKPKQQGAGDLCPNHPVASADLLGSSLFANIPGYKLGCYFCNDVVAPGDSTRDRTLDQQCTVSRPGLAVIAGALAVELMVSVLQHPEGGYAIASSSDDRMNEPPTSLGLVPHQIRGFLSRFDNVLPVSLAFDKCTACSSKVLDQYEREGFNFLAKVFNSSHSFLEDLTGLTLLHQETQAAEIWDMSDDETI
Source text: as §1, §2, §3, §4, §5, §6
598 Cat# 61FG2KLB) and PHYCOLINK goat anti-GST allophycocyanin (Prozyme, PJ252p1). […]
as §10, §11, §12, §13, §14
614 Primary human hepatocytes (H1500.H15B+ Lot No. HC10-10 Cryopreserved human hepatocytes)
615 were cultured for 2 days and then overlaid with P. falciparum NF54 sporozoites and compounds.
616 Supernatant was refreshed daily with fresh compounds.

[3] = biological target: T4, SUMO-activating enzyme (SAE) (Homo sapiens, UniProt Q9UBT2); assay: biochemical
T4 sequence (Q9UBT2 1-640): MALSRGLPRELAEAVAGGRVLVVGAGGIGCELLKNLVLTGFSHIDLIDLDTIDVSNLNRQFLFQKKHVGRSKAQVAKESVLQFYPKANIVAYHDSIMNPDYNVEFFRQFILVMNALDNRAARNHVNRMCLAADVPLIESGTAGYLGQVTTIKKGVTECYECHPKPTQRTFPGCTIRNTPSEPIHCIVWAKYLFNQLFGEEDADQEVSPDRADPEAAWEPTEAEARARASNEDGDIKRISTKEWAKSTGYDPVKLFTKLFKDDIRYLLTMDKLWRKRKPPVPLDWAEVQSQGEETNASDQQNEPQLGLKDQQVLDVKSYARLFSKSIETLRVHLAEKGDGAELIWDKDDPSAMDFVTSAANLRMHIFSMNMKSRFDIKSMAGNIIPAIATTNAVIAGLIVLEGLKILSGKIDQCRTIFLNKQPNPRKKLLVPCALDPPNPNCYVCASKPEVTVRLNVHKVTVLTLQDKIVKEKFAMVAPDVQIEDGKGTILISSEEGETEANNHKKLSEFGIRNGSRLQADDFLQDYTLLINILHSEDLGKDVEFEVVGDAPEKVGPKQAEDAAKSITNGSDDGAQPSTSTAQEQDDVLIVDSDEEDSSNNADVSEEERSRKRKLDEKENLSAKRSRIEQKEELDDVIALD
T4 sequence (Q9UBE0 1-346 partner): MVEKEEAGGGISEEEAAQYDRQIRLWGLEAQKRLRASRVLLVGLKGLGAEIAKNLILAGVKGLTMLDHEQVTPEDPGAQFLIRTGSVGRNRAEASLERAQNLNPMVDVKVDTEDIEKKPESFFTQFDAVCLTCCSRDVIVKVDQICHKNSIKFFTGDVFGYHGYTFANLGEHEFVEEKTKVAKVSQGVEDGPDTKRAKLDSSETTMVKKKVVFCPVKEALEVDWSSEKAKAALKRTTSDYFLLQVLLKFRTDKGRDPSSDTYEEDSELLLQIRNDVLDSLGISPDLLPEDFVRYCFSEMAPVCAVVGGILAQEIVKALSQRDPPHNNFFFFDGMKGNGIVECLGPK
Source text: as §1, §2, §3, §4, §5, §6, §7, §8, §9, §10, §11, §12, §13, §14, §15

## Nc1ncnc2c1ncn2[C@@H]1O[C@H](COS(N)(=O)=O)[C@@H](O)[C@H]1O [AMS, adenosine 5′-sulfamate, reference compound]
[1]
  IC50: 62 ± 32 nM
[2]
  IC50: 0.64 ± 0.11 nM
Human Atg7
  IC50: 410 ± 20 nM
[3]
  IC50: 6.3 ± 1.5 nM
